Columns and labels:
[1] = system: leucocyte accumulation in inflammatory exudates; conditions: background statement; cited from earlier work
[2] = system: TPA-induced mouse ear edema; assay: 12-O-tetradecanoylphorbol acetate (TPA)-induced murine ear edema test; format: in vivo, mouse (Swiss Webster); conditions: topical
Description: (§1) The ability of the compounds of the invention to inhibit the lipoxygenase and cyclooxygenase pathways of arachidonic acid is examined in the in vivo arachidonic acid (AA)-/12-O-tetradecanoylphorbol acetate (TPA)-induced murine ear edema test.
(§2) According to this test, Swiss Webster female mice (Buckshire), approximately 8 weeks old, are placed into plastic boxes in groups of six. Eight groups of mice receive AA topically on the right ear, and another 8 groups receive TPA topically on the right ear. AA and TPA are dissolved in acetone at concentrations of 100 mg/ml and 100 μg/ml respectively. The phlogistics are applied to the right ear by the means of an automatic pipet. Volumes of 10 μl are applied to the inner and outer surfaces of the ear. Each mouse receives either 2 mg/ear AA or 4 μg/ear TPA. The left ear (control) receives acetone delivered in the same manner. […]
(§3) Measurements are taken with Oditest calipers, 0-10 mm with 0.01 graduations. The right and left ears are measured after 1 hour AA-induced inflammation and 4 hours after TPA-induced inflammation.
(§4) The difference between right and left ear thickness is calculated and the significance is determined by a one way analysis of variance with Dunnett's comparisons to control (P=0.05). Drug effects are expressed as a percent change from control values: [formula]

[3] = system: AA-induced mouse ear edema; assay: arachidonic acid (AA)-induced murine ear edema test; format: in vivo, mouse (Swiss Webster); conditions: topical
Description: as §1, §2, §3, §4

**Q.** Which “effect on edema, PG synthesis and leucocyte accumulation” value [1] does the source give for NC1=NN(c2cccc(C(F)(F)F)c2)CC1 [BW755C, 3-amino-1-[m-(trifluoromethyl)phenyl]-2-pyrazoline, reference compound] here?
**A.** reduces edema, PG synthesis and leucocyte accumulation

**Q.** And the “effect on leucocyte numbers in inflammatory exudates” value [1]?
**A.** reduces both PMN's and mononuclear leucocyte numbers in inflammatory exudates

**Q.** And the “ED50, TPA ear edema” value [2]?
**A.** 0.2 mg/ear

**Q.** And the “ED50, AA ear edema” value [3]?
**A.** 2.8 mg/ear
